Laboratory results published in US9968603B2, “Systems for sustained intraocular delivery of low solubility compounds from a port delivery system implant” (ForSight Vision4, Inc., priority 2013, dated 2018).

Key:
[1] = Formulation (solubility) screening with cyclodextrins, concentrations achieved; settings: for Expected Concentration Achieved: achieved vs expected formulation concentration
[2] = Formulations with amphiphilic agents and non-aqueous solvents (no complexing agent), concentration dissolved; format: physicochemical
[3] = physchem; settings: pH-adjusted aqueous solution without complexing agent, pH 2, aqueous buffer

clear solution concentration ([2]; 30% SOLUTOL HS 15 and 70% PBS) | solution concentration ([2]; 32% Pyrrolidone, 31% PEG 300, 5% Polysorbate 80, 31% water) | solution concentration prepared ([2]; neat DMSO) | solution concentration prepared ([2]; neat N,N-Dimethyl acetamide) | concentration formulated ([2]; neat PEG 300) | solution concentration prepared ([2]; neat Pyrrolidone) | Concentrations achieved at pH 7, for FB ([1]; free base) | solubility [3] | SMILES | Expected Concentration Achieved [1]
≤ 6 mg/mL | ≤ 20 mg/mL | 5 mg/mL | 60 mg/mL | 9000 µg/mL | 40 mg/mL | – | – | CNC(=O)c1ccccc1Sc1ccc2c(/C=C/c3ccccn3)n[nH]c2c1 [Axitinib, N-Methyl-2-((3-((1E)-2-(pyridin-2-yl)ethenyl)-1H-indazol-6-yl)sulfanyl)benzamide] | met the desired concentration levels and Yes
– | – | – | – | – | – | (50 mg/mL | 40 mg/mL | CCN(CC)CCNC(=O)c1c(C)[nH]c(/C=C2\C(=O)Nc3ccc(F)cc32)c1C.O=C(O)CC(O)C(=O)O [Sunitinib, Butanedioic acid, hydroxy-, (2S)-, compound with N-[2-(diethylamino)ethyl]-5-[(Z)-(5-fluoro-1,2-dihydro-2-oxo-3H-indol-3-ylidine)methyl]-2,4-dimethyl-1H-pyrrole-3-carboxamide (1:1)] | met the desired concentration levels and Yes
